{
  "source": "patent US9808527B2",
  "about": "“Methods and compositions for treating HIV infections” (priority 2006, dated 2017)",
  "target": "T1, CFP- and YFP-tagged HIV-1 protease subunits (Human immunodeficiency virus type 1 group M subtype B, UniProt P12497)",
  "T1 construct": "expressed in transfected cells; host or cells: Cos-7",
  "assay_type": "cell-based",
  "details": "Cos-7 cells",
  "experimental": "After 72 hr, cultured cells were examined in the FRET-HIV-1 assay system using confocal microscopy Fluoview FV500 confocal laser scanning microscope, and CFP^A/B were determined and plotted. […] The FRET efficiency was determined following acceptor photobleaching as previously described (Bastiaens et al., EMBO 1996; Siegel et al., Science's stke 2000; Firulli et al., Nature genetics, 2005; Szczesna et al., JBC 2003). […] The changes in the CFP and YFP fluorescence intensity in the images of selected regions were examined and quantified using Olympus FV500 Image software system. […] FRET efficiency was determined using the formula: ET=(1−(IDA/ID))×100, where IDA and ID represent the steady-state donor fluorescence in the presence and absence of the acceptor, respectively. […] Ratios of intensities of ECFP fluorescence after photobleaching to ECFP fluorescence prior to photobleaching were determined. […]\nGeneration of FRET-based HIV-1 expression assay. The basic concepts of the intermolecular fluorescence resonance energy transfer (FRET)-based HIV-1-expression assay (FRET-HIV-1 assay) are shown in FIG. 7. […] A focused laser beam excitation of CFP (triggered by Helium-Cadmium laser) results in rapid energy transfer to YFP, and most of the fluorescence photons are emitted by YFP (Miyawaki et al. Nature 388(6645):882-887 (1997)). […]",
  "note": "Like-named read-outs stand apart in the source and are kept apart here.",
  "data": [
    {"compound": "CC(C)CN(C[C@@H](O)[C@H](Cc1ccccc1)NC(=O)O[C@H]1CCOC1)S(=O)(=O)c1ccc(N)cc1", "note": "[APV, Amprenavir]", "values": [
      {"measurement": "inhibition of protease dimerization", "setting": "1 μM", "value": "None"},
      {"measurement": "inhibition of protease dimerization", "setting": "10 μM", "value": "none of these 4 PIs inhibited protease dimerization"}
    ]}
  ]
}
